In this assay the target is Neuronal acetylcholine receptor subunit alpha-3 (Rattus norvegicus, UniProt P04757).

By UniProt entry, the sequences of proteins in these tests, tags left out.
UniProt P04757, whole entry: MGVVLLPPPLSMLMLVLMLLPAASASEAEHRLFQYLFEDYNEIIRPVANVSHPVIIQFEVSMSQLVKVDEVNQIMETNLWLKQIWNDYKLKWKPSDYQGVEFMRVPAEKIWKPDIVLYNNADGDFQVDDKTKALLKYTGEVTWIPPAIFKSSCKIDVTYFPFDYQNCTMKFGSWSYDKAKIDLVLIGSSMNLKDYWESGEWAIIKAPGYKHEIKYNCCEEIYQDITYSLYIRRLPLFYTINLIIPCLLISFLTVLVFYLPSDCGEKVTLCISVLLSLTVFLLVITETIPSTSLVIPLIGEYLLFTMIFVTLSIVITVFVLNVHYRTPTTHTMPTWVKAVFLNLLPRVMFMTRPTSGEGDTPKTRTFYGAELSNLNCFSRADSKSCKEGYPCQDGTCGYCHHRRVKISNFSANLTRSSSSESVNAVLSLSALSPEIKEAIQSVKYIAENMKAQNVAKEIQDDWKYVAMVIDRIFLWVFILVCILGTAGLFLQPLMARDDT

Molecules are shown by their SMILES.

We go through 1 compound from BindingDB's records for doi:10.1124/jpet.104.066787 (Georgetown University, 2004).

As usually defined, the Ki is the dissociation constant of the complex between target and ligand, obtained from inhibition or displacement. Read a low Ki as tighter binding. For the compound `CNC1(C)C2CCC(C2)C1(C)C` (stereo unspecified) [Methyl-(2,3,3-trimethyl-bicyclo[2.2.1]hept-2-yl)-amine(Mecamylamine)], the Ki was over 10 µM.
